Laboratory results as given in ChEMBL document CHEMBL2380288, “Design, synthesis, and molecular modeling of novel pyrido[2,3-d]pyrimidine analogues as antifolates; application of Buchwald-Hartwig aminations of heterocycles” (J Med Chem, 2013).

Experiments:
[1] = Selectivity ratio of IC50 for human recombinant DHFR to IC50 for Pneumocystis jirovecii recombinant DHFR
[2] = Selectivity ratio of IC50 for rat liver DHFR to IC50 for Pneumocystis carinii DHFR
[3] = Selectivity ratio of IC50 for rat liver DHFR to IC50 for Mycobacterium avium DHFR

## CN(c1cc(F)c(F)c(F)c1)c1cnc2nc(N)nc(N)c2c1
[1]
  Ratio IC50: 35
[2]
  Ratio IC50: 1.9
[3]
  Ratio IC50: 15
